The Ki is a dissociation constant, usually derived from enzyme kinetics or from competition with a known ligand.

The chains behind the UniProt entries cited, without tags or fusion partners. Where a name states a change or a piece, a line headed by the entry shows the natural chain unless it says otherwise.
UniProt P30874: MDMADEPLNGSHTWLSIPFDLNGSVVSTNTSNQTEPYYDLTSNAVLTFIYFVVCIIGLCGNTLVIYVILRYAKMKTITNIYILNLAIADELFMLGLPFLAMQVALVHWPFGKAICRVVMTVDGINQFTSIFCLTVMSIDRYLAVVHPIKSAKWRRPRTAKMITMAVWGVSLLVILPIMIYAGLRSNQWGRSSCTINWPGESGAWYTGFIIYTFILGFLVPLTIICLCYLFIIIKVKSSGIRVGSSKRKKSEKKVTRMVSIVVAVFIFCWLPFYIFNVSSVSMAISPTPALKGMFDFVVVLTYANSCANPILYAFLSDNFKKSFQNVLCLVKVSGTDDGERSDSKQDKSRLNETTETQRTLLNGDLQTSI
UniProt P35346: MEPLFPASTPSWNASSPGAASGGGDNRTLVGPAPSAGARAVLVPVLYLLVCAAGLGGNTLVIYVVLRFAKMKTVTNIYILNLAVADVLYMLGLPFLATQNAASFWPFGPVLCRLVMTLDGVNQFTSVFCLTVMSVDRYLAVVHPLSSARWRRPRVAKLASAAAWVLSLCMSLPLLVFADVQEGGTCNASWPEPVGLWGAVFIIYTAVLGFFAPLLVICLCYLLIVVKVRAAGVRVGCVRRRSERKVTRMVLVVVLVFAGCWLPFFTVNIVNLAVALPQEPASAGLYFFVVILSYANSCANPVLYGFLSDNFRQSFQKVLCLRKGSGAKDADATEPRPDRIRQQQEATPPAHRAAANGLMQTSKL

For one compound, Ki results are on record in patent publication US9731027B2, “Somatostatin-dopamine chimeric analogs” (Ipsen Pharma S.A.S., priority 2012, dated 2017).

The target in one experiment is T1, hSSTR2 (Homo sapiens, UniProt P30874).
T1 construct: host or cells: 'Cells expressing hSSTR2'
As to the kind of experiment: Somatostatin receptor radioligand binding assay, hSSTR2.

A further experiment deals with T2, hSSTR5 (Homo sapiens, UniProt P35346).
T2 construct: expressed in transfected cells; host or cells: CHO-K1 (ATCC), pcDNA3.1, G418-selected clonal line; membranes
Nature of the experiment: Somatostatin receptor radioligand binding assay, hSSTR5. The conditions noted are these: CHO-K1 membranes, [125-Tyr]-[DPhe-cyclo(Cys-Tyr-DTrp-Lys-Val-Cys)-Thr-NH2]; read-out: hSSTR5 Ki (nM) ± SEM.

On to `C[C@@H](O)[C@@H]1NC(=O)[C@H](CCCCN)NC(=O)[C@@H](Cc2c[nH]c3ccccc23)NC(=O)[C@H](Cc2ccccc2)NC(=O)[C@H](Cc2ccccc2)NC(=O)[C@H](CCCNC(=N)N)NC(=O)[C@H](NC(=O)CSC[C@@H]2C[C@@H]3c4cccc5[nH]cc(c45)C[C@H]3N(C)C2)CCCCNC(=O)[C@H](Cc2ccccc2)NC1=O` [Compound 44, Dop1-cyclo(DLys-Arg-Phe-Phe-DTrp-Lys-Thr-Phe)], for which the Ki at hSSTR2 was found to be 1.37 ± 0.23 nM; on hSSTR5, 1.38 ± 0.3 nM.
